From PubChem BioAssay AID463254 (National Center for Advancing Translational Sciences (NCATS), 2010)
Only a part is listed here, and it is no random draw. Some tests of the compounds listed are not included; inactive here does not mean inactive elsewhere. Active and inactive are the calls of the source. Calls follow the shape of the dose curve; as a rule, active = well fitted inhibition curve with a large enough effect; inconclusive = small, poorly fitted or top-dose-only effect, or effect the other way; inactive = flat fitted curve, though single readings scatter.

Sequences of proteins named here, by UniProt entry; tags and fusion partners are left off.
UniProt O75604, whole entry: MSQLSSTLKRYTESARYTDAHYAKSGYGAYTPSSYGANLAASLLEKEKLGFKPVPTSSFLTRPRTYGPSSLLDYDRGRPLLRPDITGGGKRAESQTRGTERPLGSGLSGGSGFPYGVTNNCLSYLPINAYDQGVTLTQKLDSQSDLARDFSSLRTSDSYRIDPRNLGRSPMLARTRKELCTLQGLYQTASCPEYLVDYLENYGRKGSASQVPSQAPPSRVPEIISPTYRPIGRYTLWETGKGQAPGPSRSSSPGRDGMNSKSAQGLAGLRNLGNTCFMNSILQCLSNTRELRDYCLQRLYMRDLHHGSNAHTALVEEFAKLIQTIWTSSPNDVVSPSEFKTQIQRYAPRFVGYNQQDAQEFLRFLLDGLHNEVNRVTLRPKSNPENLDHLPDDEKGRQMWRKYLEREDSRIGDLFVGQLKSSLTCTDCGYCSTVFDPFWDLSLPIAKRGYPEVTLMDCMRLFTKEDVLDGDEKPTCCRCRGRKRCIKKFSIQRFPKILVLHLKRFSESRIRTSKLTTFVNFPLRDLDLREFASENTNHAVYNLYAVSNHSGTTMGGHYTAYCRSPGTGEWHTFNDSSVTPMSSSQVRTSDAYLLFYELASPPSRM

Each molecule was assayed against Ubiquitin carboxyl-terminal hydrolase 2 (Homo sapiens) (UniProt O75604) (assay: qHTS Assay for Inhibitors of Ubiquitin-specific Protease USP2a Using CHOP2 as the Reporter). Conditions: USP2 core, Ub-CHOP2 coupled fluorogenic reporter, 485/531; at 38.3 µM (top of the series).
Description: NIH Molecular Libraries Screening Centers Network [MLSCN] NIH Chemical Genomics Center [NCGC] MLSCN Grant: XO1-MH079852-01 PI Name: Nicholson, Ben. Progenra Inc, Malvern, PA NCGC Assay Overview: Homeostasis of cellular proteins is maintained through a combination of synthesis and degradation. The pathway that accounts for the majority of protein degradation is the ubiquitin-proteasomal pathway. Ubiquitin (Ub) is highly conserved in all cells and the generation of a multi-Ub chain typically targets proteins for degradation by the proteasome. However, ubiquitination is highly reversible and dynamic. Deubiquitination, the reverse process, is catalyzed through the action of enzymes referred to as isopeptidases or deubiquitinating enzymes (DUBs). This group of enzymes is collectively responsible for maintaining adequate pools of free ubiquitin and regulating the ubiquitination status of cellular proteins. The class of DUBs referred to as the ubiquitin-specific proteases (USP) family functions endoproteolytically to cleave Ub chains from a wide range of protein substrates. USP2a deubiquitinates fatty acid synthase (FASN) which has recently been identified as an emerging oncology target. To identify inhibitors of USP2a a cell-free assay was employed. […] The reporter enzyme chosen is an enterokinase called CHOP2, which is activated when the Ub is cleaved by USP2. The free and now activated reporter can subsequently act on its reporter substrate. Thus, this coupled assay gives a fluorescent read-out at excitation/emission wavelengths of 485/531. The assay was developed by Progenra, Inc. and has been licensed for sale by LifeSensors, Inc. as Ub-CHOP2-Reporter-Kit (#PR1101).
NCGC Assay Protocol Summary: The assay buffer, prepared fresh at the day of the assay, contains 20mM Tris-HCl pH 8.0, 2mM CaCl2, 2mM beta-Mercaptoethanol, 0.05% CHAPS. 3ul of 20nM (10nM final) USP2 core, which is stored on ice, is dispensed into a medium-binding black solid Kalypsys 1,536 well plate using the Kalypsys dispenser. The assay plate is then pinned with 23nL compound with the Kalypsys pintool in columns 5-48. The controls are pinned as follows: column 1 two-fold dilutions of 2M NEM in duplicate; column 2 2M NEM (final concentration 38.2mM); column 3&4 DMSO. The assay plate is incubated at RT for 30min. Subsequently, 1.5uL of 100nM (25nM final) Ub-CHOP2 and 1.5uL of 100nM (25nM final) Reporter Substrate (both stored on ice and protected from light) were dispensed into the plate using the Kalypsys dispenser. Plates were read after 60min RT incubation on a ViewLux (Perkin Elmer) plate reader using the following wavelengths Ex 485nm /Em 531nm. Data were normalized to the to AC100 inhibition (NEM). Concentration-response curves were fitted to the normalized data and the concentration-response curves were then classified based on curve quality (r2), response magnitude and degree of measured activity. The time zero reading was used to flag fluorescence artifacts. Keywords: ubiquitination, deubiquitination, proteases, profluorescent, MLSMR, MLPCN, NIH Roadmap, qHTS, NCGC

Structure (SMILES) | activity change, negative = inhibition
CN1[C@@H]2CC[C@H]1CC(OC(=O)C(O)(c1ccccc1)c1ccccc1)C2 (some centres undefined) | inactive: 3.25%
O=C(NCC1(N2CCCCC2)CCCCC1)c1cc([N+](=O)[O-])ccc1Cl | inactive: -11.5%
Cc1ccc(C(=O)NCC2(N3CCCCC3)CCCCC2)cc1 | inactive: 3.57%
COc1cc(SC)ccc1C(=O)NCC1(N(C)C)CCCCC1 | inactive: 3.56%
CCN(CC)CC(C)C(C)OC(=O)C(O)(c1ccccc1)c1ccccc1 (centres undefined) | inactive: 0.854%
CC(C)N1C(=O)CC2(CCN(CCOC(=O)C(O)(c3ccccc3)c3ccccc3)CC2)C1=O | inactive: 4.49%
CN(C)c1ccc(C(=O)NCC2(N(C)C)CCCCC2)cc1 | inactive: 0.385%
CN(C)C1CCCC1OC(=O)C(O)(c1ccccc1)c1ccccc1 (centres undefined) | inactive: -1.78%
Cc1ccccc1C(=O)NCC1(N2CCCCC2)CCCCC1 | inactive: 2.86%
COc1ccc(C(=O)NCC2(N(C)C)CCCCC2)cc1 | inactive: 2.98%
O=C(NCC1(N2CCCCC2)CCCCC1)c1cccc(Br)c1 | inactive: 0.789%
CCN1CCCC(OC(=O)C2(O)c3ccccc3C=Cc3ccccc32)C1 (centres undefined) | inactive: 1.42%
Cc1cc(C(=O)NCC2(N3CCCCC3)CCCCC2)ccc1[N+](=O)[O-] | inactive: -0.282%
O=C(NCC1(N2CCCCC2)CCCCC1)c1cc(F)c(F)cc1Cl | inactive: 1.36%
C=CCN1CCN(CCOC(=O)C(O)(c2ccccc2)c2ccccc2)CC1 | inactive: 2.43%
COc1cc(C(=O)NCC2(N(C)C)CCCCC2)c([N+](=O)[O-])cc1OC | inactive: -1.2%
CN(C)C1(CNC(=O)c2ccc(Br)cc2)CCCCC1 | inactive: 3.28%
O=C(NCC1(N2CCCCC2)CCCCC1)c1cccc(Cl)c1 | inactive: 2.91%
COc1ccc(Cl)cc1C(=O)NCC1(N(C)C)CCCCC1 | inactive: 1.3%
COc1cccc(C(=O)NCC2(N3CCCCC3)CCCCC2)c1 | inactive: 1.46%
O=C(OC1CN2CCC1CC2)C(CO)(c1ccccc1)c1ccccc1 (centres undefined) | inactive: 0.217%
CC(C)Oc1ccc(C(=O)NCC2(N(C)C)CCCCC2)cc1 | inactive: 7.05%
CN(C)c1cccc(C(=O)NCC2(N(C)C)CCCCC2)c1 | inactive: 2.39%
COc1ccc(Br)c(C(=O)NCC2(N3CCCCC3)CCCCC2)c1 | inactive: -6.12%
